Here are results for one substance from patent publication US20150079088A1.

In the assay the target is EGFR on EGFR-expressing cells (SW480 and other EGFR-expressing cell lines) (UniProt P00533). As to the kind of experiment: cell-based or functional assay.

“multispecific antibody C225v5-OKT3m-H-C (bispecific antibody)” showed a reduction in maximal CD69 induction with EGFR-negative U266 cells relative to EGFR-positive cells of 75%.
